Test results reported in patent US20080311604A1, “Methods for Prediction and Prognosis of Cancer, and Monitoring Cancer Therapy” (priority 2005, published 2008).
Where two headings read alike, the source gives them in different places.

System: soluble VEGF-R2
Settings: plasma, renal cell carcinoma patients

Structure (SMILES): CNC(=O)c1cc(Oc2ccc(NC(=O)Nc3ccc(Cl)c(C(F)(F)F)c3)cc2)ccn1 [Sorafenib]
- Median soluble VEGF-R2 (Cycle 1 Day 21): 9704 pg/mL
- Median soluble VEGF-R2 (Cycle 3 Day 1): 8964 pg/mL
- Median soluble VEGF-R2 (Sorafenib group, Baseline (pretreatment)): 12237 pg/mL
